# Source: patent publication US5470951A, “Peptides for antagonizing the effects of amyloid βprotein” (City of Hope, priority 1993, dated 1995)
# What was measured:
# [1] = system: amnestic effects of β-(12-28) on retention of FAAT; assay: Blocking of amnestic effect of β-(12-28) on retention of FAAT by ICV co-administered peptides; type: in vivo, CD-1 male mice; conditions: β-(12-28) alone, 6 nmol ICV, groups of ten mice; vehicle alone 6.85 ± 0.20
# Description: Test Animals. After one week in the laboratory, CD-1 male mice obtained from Charles River Breeding Laboratories were caged individually 24-28 hours prior to training and remained singly housed until retention was tested one week later. Animal rooms were on a 12-hour light/dark cycle with lights going on at the hour of 0600. Median body weight was 35 g, with a range of 33-38 g. Mice were assigned randomly to groups of ten in the experiments reported in Table 1, groups of 14 in the experiments reported in Table 2, and groups of 15 in FIG. 1 and were trained and tested between the hours of 0700 and 1500.
# Peptides were dissolved in 8% vol/vol dimethyl sulfoxide and diluted to a final concentration of 0.001% dimethyl sulfoxide in saline. Upon testing for retention of FAAT after receiving post-training ICV administration of 2 μl of the above vehicle the mean numbers of trials to criterion±standard error of the mean (SEM for well trained mice and weakly trained mice were 6.85±0.20 and 9.07±0.25, respectively (see the paragraph below for definition of the two training paradigms).
# Apparatus, training and Testing Procedures. The T-maze used for footshock active avoidance training (FAAT) consisted of a black plastic alley (46 cm long) with a start box at one end and two goal boxes (17.5 cm long) at the other. […]
# [2] = reference 25; cited from earlier work
substance,measurement,setting,value
β-(12-28): a peptide homologous to Aβ that is as potently amnestic as Aβ and shows amyloid-like aggregation,"Trial to criterion, no (mean + SEM)",[1],9.62+0.30 and 9.62 ± 0.30
same,amnestic potency compared with Aβ,[2],as potently amnestic as Aβ

# Where “and” joins values, the source holds several entries; their conditions need not be identical. Equal values may be shown once.
